Reference: US11702422B2, “Imidazopyridazines as modulators of IL-17” (Janssen Pharmaceutica NV, priority 2020, dated 2023)

Chains of the proteins cited; added tags and fusions are not shown. A line that says so, or that is headed by a name, gives the form on record, which may keep a tag or linker. Residues count along the entry.
UniProt Q16552, 24-154 with tags or gaps K93Q: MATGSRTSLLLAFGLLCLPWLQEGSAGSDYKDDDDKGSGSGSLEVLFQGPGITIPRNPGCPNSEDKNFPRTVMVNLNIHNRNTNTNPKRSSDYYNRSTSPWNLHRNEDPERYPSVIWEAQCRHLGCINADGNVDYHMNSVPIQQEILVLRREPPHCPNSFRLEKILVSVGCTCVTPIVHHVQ

Experiments:
[1] = molecular target: IL-17A(FLAG-Tagged): IL-17RA(His-Tagged) (Homo sapiens, UniProt Q16552, K93Q); assay: IL-17A(FLAG-Tagged): IL-17RA(His-Tagged) Binding Disruption Eu-HTRF Assay; settings: read-out: HTRF IC50, IL-17A/IL-17RA binding disruption, simple average if tested more than once
From the text: IL-17A(FLAG-Tagged): IL-17RA(His-Tagged) Binding Disruption Eu-HTRF Assay
An antibody directed against the FLAG tag of IL-17A (SEQ ID NO:1) is labeled with the HTRF donor chromophore (Europium-cryptate). IL-17A is present as a dimer that is “locked into” this quaternary structure due to the formation of loop-spanning […] disulfide bridges. The construct of IL-17RA used in the assay excludes the […] portion of the receptor and is fused to a C-terminal 10×His tag (SEQ ID NO:2). An antibody directed against the His tag of the IL-17RA chimera is labeled with the HTRF acceptor chromophore (“D2”). The fluorescence-resonance energy transfer (FRET) depends on the vicinity of the donor chromophore to the acceptor, and interruption of the binding between the IL-17A and IL-17RA causes the reduction/loss of FRET. Therefore, this assay allows to evaluate the compound effect on the binding IL-17A and IL-17RA by monitoring the fluorescence intensity of donor vs acceptor. […]
40 nl of 2-fold serial diluted compound solution for total 22 dilution points is added into each well of a 1536-well, white, low-volume, non-binding plate (Greiner #782904), then 2 μl of FLAG tagged IL-17A at 2× final concentration (2.5 nM) in solution of PBS+0.01% Triton-X100 is added to each well. […] The HTRF intensities at the wavelength of donor (620 nm) and acceptor (665 nm) are measured using BMG Pherastar. […]

[2] = system: IL-17A-induced G-CSF production in human normal keratinocyte (NHK); assay: NHK Assay: IL-17A-induced G-CSF production in human normal keratinocytes; settings: read-out: NHK IC50, adult normal human keratinocytes, IL-17A 5 ng/mL, 24 h, simple average if tested more than once
Procedure: IL-17A acts directly on keratinocytes through binding to dimeric receptor IL-17RA/RC and drives the production of a number of inflammatory mediators known to be elevated in psoriasis lesional tissue. IL-17A small molecule inhibitors that block the IL-17A to interact with IL-17R would inhibit the IL-17A signaling in its targeted cells such as keratinocytes. The compound functional activity is evaluated for its impact on IL-17A-induced G-CSF production in human normal keratinocyte (NHK).
Adult normal human keratinocytes are cultured in keratinocyte growth medium (Lonza) in a flask till reaching ˜ 90% confluence, then cells are transferred to a 384-well plate at density of 3000-4000 cell/well. Recombinant human IL-17A (Gibco PHC9174) is pre-incubated with titrated compound or DMSO for 1 h at rt then added to the cell culture plate. The final concentration of IL-17A is 5 ng/mL and DMSO is 0.2%, in the culture containing 5% FBS. Cells are cultured/treated for 24 h at 37° C. Supernatants are collected and G-CSF production is measured through HTRF technology using Human G-CSF Kit (CisBio). G-CSF concentration was extrapolated from the standard curve and IC50 is determined using GraphPad Prism. Cell viability is also evaluated using CellTiter-Glo kit (Promega) and effect of compound on cell viability is compared to DMSO control.

- pIC50 [1]: 6.47
Compound: O=C(N[C@H](c1cn2ncc([C@H](NC(=O)[C@H](O)CC(F)(F)F)C3CC3)cc2n1)C1CCC(F)(F)CC1)c1cnn(CC(F)(F)F)n1
- pIC50 [2]: 6.00

pIC50: −log10 of the molar value.
